Measured values from PubChem BioAssay AID1259374 (The Scripps Research Institute Molecular Screening Center, 2018).
The list shows a part of the results, in another mix than the full data. Some structures show a salt or complex split into parts, the way the source records it. The source made the active and inactive calls. Rule as the data show it: active = inhibition above about 50%; inactive = the rest.

Sequences of proteins named here, by UniProt entry; tags and fusion partners are left off.
UniProt O75030, whole entry: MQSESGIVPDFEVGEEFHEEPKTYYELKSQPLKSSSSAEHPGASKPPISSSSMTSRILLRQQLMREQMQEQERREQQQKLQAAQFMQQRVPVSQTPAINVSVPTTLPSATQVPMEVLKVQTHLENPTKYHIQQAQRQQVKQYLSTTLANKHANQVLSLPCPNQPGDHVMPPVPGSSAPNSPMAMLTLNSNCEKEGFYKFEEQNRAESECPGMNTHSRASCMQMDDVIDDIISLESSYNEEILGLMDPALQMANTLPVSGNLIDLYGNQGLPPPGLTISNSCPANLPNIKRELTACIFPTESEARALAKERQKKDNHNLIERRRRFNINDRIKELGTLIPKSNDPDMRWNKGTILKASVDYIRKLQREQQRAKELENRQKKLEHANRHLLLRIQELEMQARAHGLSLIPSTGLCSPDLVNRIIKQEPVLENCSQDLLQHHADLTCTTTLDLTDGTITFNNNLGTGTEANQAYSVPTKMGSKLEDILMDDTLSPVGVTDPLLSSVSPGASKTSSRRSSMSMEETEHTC

The compounds below were run against Microphthalmia-associated transcription factor (Homo sapiens) (UniProt O75030) (assay: MITF inhibitors, primary screen, biochemical, AlphaScreen, human (AID 1259374;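 also: 0% = vehicle wells with protein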)). Conditions: AlphaScreen MITF homodimerization, bead proximity signal; at 2.6 µM; hits give high values.
In the case of `CC(C)(C)c1ccc(OP(C)(N)=O)cc1` (stereo not drawn), the inhibition is reported as inactive: 8.51%.
`O=C(O)C1(O)c2ccccc2-c2ccccc21` was tested, and the inhibition was inactive: 3.73%.
In the case of `COc1ccccc1OP(C)(=O)Nc1cc(Cl)ccc1C` (stereo not drawn), the inhibition is reported as inactive: 1.04%.
With `Cc1cc(C)cc(OP(C)(=O)NCc2ccccc2)c1` (stereo not drawn) the inhibition was inactive: 13.2%.
For `CP(=O)(O)OC(c1cccc(C(F)(F)F)c1)C(F)(F)F` (stereo not drawn), the inhibition was inactive: 5.82%.
`CCOC(=O)c1ccc(NP(C)(=O)Oc2ccccc2)cc1` (stereo not drawn) was tested, and the inhibition was inactive: 6.14%.
`Cc1ccc(NP(C)(=O)Oc2ccccc2)c(C)c1` (stereo not drawn) was tested, and the inhibition was inactive: 2.25%.
`COc1ccccc1OP(C)(=O)Nc1ccc(C)cc1` (stereo not drawn) was tested, and the inhibition was inactive: -1.33%.
In the case of `CCN(CC)c1nc(C)cc(C)n1.O=[N+]([O-])c1cc([N+](=O)[O-])c(O)c([N+](=O)[O-])c1`, the inhibition is reported as inactive: 14.9%.
In the case of `Cc1cc(C)cc(OP(C)(=O)Nc2ccc(F)cc2)c1` (stereo not drawn), the inhibition is reported as inactive: 7.25%.
`Cc1ccc2c(c1)c1nc(C)sc1n2C.O=[N+]([O-])c1cc([N+](=O)[O-])c(O)c([N+](=O)[O-])c1` was tested, and the inhibition was inactive: -7.52%.
In the case of `Cc1ccc(NP(C)(=O)Oc2ccccc2)cc1` (stereo not drawn), the inhibition is reported as inactive: -16%.
With `CCN(CC)CCCOC(=O)C(O)(c1ccccc1)c1ccccc1` the inhibition was inactive: -4.08%.
`CCCCOC(=O)Nc1c([N+](=O)[O-])cc([N+](=O)[O-])cc1[N+](=O)[O-]` was tested, and the inhibition was inactive: -2.15%.
`COc1ccccc1OP(C)(=O)Nc1ccc(Cl)cc1Cl` (stereo not drawn) was tested, and the inhibition was inactive: -4.13%.
`CC(C)Oc1ccc(NP(C)(=O)Oc2ccc(Cl)cc2)cc1` (stereo not drawn) was tested, and the inhibition was inactive: 6.16%.
With `O=[N+]([O-])c1c(NCCO)c([N+](=O)[O-])c(NCCO)c([N+](=O)[O-])c1NCCO` the inhibition was inactive: -4.75%.
`CCOP(C)(=S)SCN(CC(=O)O)C(=O)OC` (stereo not drawn) was tested, and the inhibition was active: 61.9%.
In the case of `O=c1[nH]c2cc([N+](=O)[O-])c([N+](=O)[O-])c([N+](=O)[O-])c2[nH]1`, the inhibition is reported as inactive: 26.3%.
With `CCOC(=O)c1ccc(NP(C)(=O)Oc2cc(C)cc(C)c2)cc1` (stereo not drawn) the inhibition was inactive: 10.5%.
In the case of `CC1=[N+](C)C(C)(C)Cc2ccccc21.O=[N+]([O-])c1cc([N+](=O)[O-])c(O)c([N+](=O)[O-])c1`, the inhibition is reported as inactive: -4.88%.
For `COc1ccccc1OP(C)(=O)Nc1ccc(Cl)cc1` (stereo not drawn), the inhibition was inactive: 0.18%.
`COc1ccccc1OP(C)(=O)Nc1cccc(Br)c1` (stereo not drawn) was tested, and the inhibition was inactive: 4.03%.
In the case of `COc1ccc(OP(C)(=O)Nc2cccc(Cl)c2C)cc1` (stereo not drawn), the inhibition is reported as inactive: 6.41%.
For `CC(=O)NC1(NC(C)=O)CC(C)N(C)CC1C.O=[N+]([O-])c1cc([N+](=O)[O-])c(O)c([N+](=O)[O-])c1` (stereo not drawn), the inhibition was inactive: -4.72%.
With `O=[N+]([O-])c1cnc(Nc2c([N+](=O)[O-])cc([N+](=O)[O-])cc2[N+](=O)[O-])c([N+](=O)[O-])c1` the inhibition was inactive: 0.94%.
`CP(=O)(Nc1cccc(Br)c1)Oc1ccccc1` (stereo not drawn) was tested, and the inhibition was inactive: 11.6%.
With `C=CCC1(CC=C)CCCCCCCCCCCN1.O=[N+]([O-])c1cc([N+](=O)[O-])c(O)c([N+](=O)[O-])c1` the inhibition was inactive: 13.1%.
`O=[N+]([O-])c1cc2[nH]c3cc([N+](=O)[O-])c([N+](=O)[O-])cc3c2cc1[N+](=O)[O-]` was tested, and the inhibition was active: 88.2%.
For `Cc1ccc(C)c(NP(C)(=O)Oc2ccccc2)c1` (stereo not drawn), the inhibition was inactive: -4.23%.
For `Nc1c([N+](=O)[O-])cc([N+](=O)[O-])c(Nc2ccc(C(=O)O)cc2)c1[N+](=O)[O-]`, the inhibition was inactive: 8.45%.
In the case of `O=[N+]([O-])C12CC3(O)CC([N+](=O)[O-])(C1)CC([N+](=O)[O-])(C3)C2`, the inhibition is reported as inactive: -9.16%.
For `O=[N+]([O-])Nc1nc(CCc2n[nH]c(N[N+](=O)[O-])n2)n[nH]1`, the inhibition was inactive: -7.13%.
In the case of `Cc1ccc(Cl)c(OP(C)(=O)Nc2ccccn2)c1` (stereo not drawn), the inhibition is reported as inactive: 6.11%.
With `CCOC(=O)C(CC)C1=NC(C)(C)Cc2ccccc21.O=[N+]([O-])c1cc([N+](=O)[O-])c(O)c([N+](=O)[O-])c1` (stereo not drawn) the inhibition was inactive: 3.35%.
For `CP(=O)(Nc1ccc(Br)cc1)Oc1ccc(Cl)cc1` (stereo not drawn), the inhibition was inactive: -9.6%.
In the case of `CP(=O)(Nc1cccc(Br)c1)Oc1ccc(Cl)cc1` (stereo not drawn), the inhibition is reported as inactive: 0.97%.
With `CCCOc1ccc(NP(C)(=O)Oc2ccccc2OC)cc1` (stereo not drawn) the inhibition was inactive: 1.61%.
For `Cc1cc(N(C)C)cc[n+]1C(=O)N(C)C.c1ccc([B-](c2ccccc2)(c2ccccc2)c2ccccc2)cc1`, the inhibition was inactive: 2.68%.
`CCN(CC)C(C)COC(=O)C(O)(c1ccccc1)c1ccccc1` (stereo not drawn) was tested, and the inhibition was inactive: -8.29%.
With `COc1ccccc1OP(C)(=O)Nc1c(C)cccc1C` (stereo not drawn) the inhibition was inactive: 7.32%.
With `CCN(CC)C(=O)c1c([N+](=O)[O-])cc([N+](=O)[O-])cc1[N+](=O)[O-]` the inhibition was inactive: 6.71%.
With `Nc1nonc1-c1no[n+]([O-])c1-c1nonc1N` the inhibition was inactive: 2.63%.
